Membrane permeability of cyclic peptides

Data: CycPeptMPDB; original report Kelly et al. 2021, doi:10.1021/jacs.0c06115.

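Lipid, pH, incubation time, direction and concentration are not recorded in the data file. Other peptides of the study may be missing here. Peptides that the database sets to -10, its floor, are left out.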

PAMPA is the parallel artificial membrane permeability assay, which has no cells and reads passive diffusion.
Permeability is given as log10 of P in cm/s; higher (less negative) is more permeable.

structure (SMILES),PAMPA (log10 cm/s)
CC(=O)N[C@@H]1C(=O)N2CCC[C@H]2C(=O)N(C)[C@H](CC(C)C)C(=O)N(C)[C@@H](CC(C)C)C(=O)N[C@@H](CC(C)C)C(=O)N[C@H](CC(C)C)C(=O)N(C)[C@H](C)C(=O)N[C@@H](CC(C)C)C(=O)N2CCC[C@@H]2C(=O)O[C@@H]1C,-5.88
CC(=O)N[C@@H]1C(=O)N2CCC[C@H]2C(=O)N(C)[C@H](CC(C)C)C(=O)N[C@H](CC(C)C)C(=O)N(C)[C@H](CC(C)C)C(=O)N(C)[C@H](CC(C)C)C(=O)N[C@@H](C)C(=O)N[C@@H](CC(C)C)C(=O)N2CCC[C@@H]2C(=O)O[C@@H]1C,-6.40
CC(=O)N1CCC[C@H]1C(=O)N(C)[C@H](CC(C)C)C(=O)N[C@@H]1C(=O)N[C@H](Cc2ccccc2)C(=O)N[C@@H](CC(C)C)C(=O)N[C@H](Cc2cccc3ccccc23)C(=O)N(C)[C@H](C)C(=O)N[C@@H](CC(C)C)C(=O)N2CCC[C@H]2C(=O)O[C@@H]1C,-5.99
CC(=O)N[C@@H]1C(=O)N2CCC[C@H]2C(=O)N(C)[C@H](CC(C)C)C(=O)N(C)[C@@H](CC(C)C)C(=O)N[C@@H](CC(C)C)C(=O)N(C)[C@@H](CC(C)C)C(=O)N(C)[C@H](C)C(=O)N[C@@H](CC(C)C)C(=O)N2CCC[C@@H]2C(=O)O[C@@H]1C,-6.00
CCC[C@@H]1NC(=O)[C@@H](CC2CCCCC2)NC(=O)[C@@H](NC(=O)[C@@H](CC(C)C)N(C)C(=O)[C@@H]2CCCN2C(C)=O)[C@@H](C)OC(=O)[C@@H]2CCCN2C(=O)[C@H](CC(C)C)NC(=O)[C@@H](C)N(C)C(=O)[C@@H](Cc2ccccc2)NC1=O,-5.53
CCC[C@@H]1NC(=O)[C@@H](CC2CCCCC2)NC(=O)[C@@H](NC(=O)[C@@H](CC(C)C)N(C)C(=O)[C@@H]2CCCN2C(C)=O)[C@@H](C)OC(=O)[C@@H]2CCCN2C(=O)[C@H](CC(C)C)NC(=O)[C@@H](C)N(C)C(=O)[C@@H](CC(C)C)NC1=O,-5.44
CCC[C@H]1NC(=O)[C@@H](NC(=O)[C@@H](CC(C)C)N(C)C(=O)[C@@H]2CCCN2C(C)=O)[C@@H](C)OC(=O)[C@@H]2CCCN2C(=O)[C@H](CC(C)C)NC(=O)[C@@H](C)N(C)C(=O)[C@@H](CC(C)C)NC(=O)[C@H](CC(C)C)NC1=O,-5.47
CCC[C@H]1NC(=O)[C@@H](NC(=O)[C@@H](CC(C)C)N(C)C(=O)[C@@H]2CCCN2C(C)=O)[C@@H](C)OC(=O)[C@@H]2CCCN2C(=O)[C@H](CC(C)C)NC(=O)[C@@H](C)N(C)C(=O)[C@@H](CC2CCCCC2)NC(=O)[C@H](CCc2ccccc2)NC1=O,-5.83
CCC[C@H]1NC(=O)[C@H](Cc2ccc(OC)cc2)NC(=O)[C@@H](CC(C)C)NC(=O)[C@@H](NC(=O)[C@@H](CC(C)C)N(C)C(=O)[C@@H]2CCCN2C(C)=O)[C@@H](C)OC(=O)[C@@H]2CCCN2C(=O)[C@H](CC(C)C)NC(=O)[C@@H](C)N(C)C1=O,-6.06
CC[C@@H]1NC(=O)[C@@H](CC)NC(=O)[C@@H](NC(=O)[C@@H](CC(C)C)N(C)C(=O)[C@@H]2CCCN2C(C)=O)[C@@H](C)OC(=O)[C@@H]2CCCN2C(=O)[C@H](CC(C)C)NC(=O)[C@@H](C)N(C)C(=O)[C@@H](Cc2cccc3ccccc23)NC1=O,-5.93
CC(=O)N[C@@H]1C(=O)N2CCC[C@H]2C(=O)N(C)[C@H](CC(C)C)C(=O)N[C@H](CC(C)C)C(=O)N[C@@H](CC(C)C)C(=O)N(C)[C@@H](CC(C)C)C(=O)N[C@@H](C)C(=O)N[C@@H](CC(C)C)C(=O)N2CCC[C@@H]2C(=O)O[C@@H]1C,-6.51
CC(=O)N1CCC[C@H]1C(=O)N(C)[C@H](CC(C)C)C(=O)N[C@@H]1C(=O)N[C@H](Cc2ccc(F)cc2)C(=O)N[C@@H](Cc2ccc(F)cc2)C(=O)N[C@H](Cc2ccccc2)C(=O)N(C)[C@H](C)C(=O)N[C@@H](CC(C)C)C(=O)N2CCC[C@H]2C(=O)O[C@@H]1C,-5.82
COc1ccc(C[C@@H]2NC(=O)[C@@H](Cc3ccc(F)cc3)NC(=O)[C@@H](NC(=O)[C@@H](CC(C)C)N(C)C(=O)[C@@H]3CCCN3C(C)=O)[C@@H](C)OC(=O)[C@@H]3CCCN3C(=O)[C@H](CC(C)C)NC(=O)[C@@H](C)N(C)C(=O)[C@@H](Cc3cccc4ccccc34)NC2=O)cc1,-6.85
COc1ccc(C[C@@H]2NC(=O)[C@@H](Cc3cccc4ccccc34)NC(=O)[C@@H](NC(=O)[C@@H](CC(C)C)N(C)C(=O)[C@@H]3CCCN3C(C)=O)[C@@H](C)OC(=O)[C@@H]3CCCN3C(=O)[C@H](CC(C)C)NC(=O)[C@@H](C)N(C)C(=O)[C@@H](CC(C)C)NC2=O)cc1,-6.85
CC(=O)N1CCC[C@H]1C(=O)N(C)[C@H](CC(C)C)C(=O)N[C@@H]1C(=O)N[C@H](Cc2cccc3ccccc23)C(=O)N[C@@H](CCc2ccccc2)C(=O)N[C@H](Cc2ccccc2)C(=O)N(C)[C@H](C)C(=O)N[C@@H](CC(C)C)C(=O)N2CCC[C@H]2C(=O)O[C@@H]1C,-6.65
CC(=O)N1CCC[C@H]1C(=O)N[C@@H]1C(=O)N(C)[C@H](CC(C)C)C(=O)N[C@H](CC(C)C)C(=O)N(C)[C@@H](CC(C)C)C(=O)N(C)[C@H](CC(C)C)C(=O)N[C@H](C)C(=O)N[C@@H](CC(C)C)C(=O)N2CCC[C@@H]2C(=O)O[C@@H]1C,-5.45
CC(=O)N1CCC[C@H]1C(=O)N(C)[C@H](CC(C)C)C(=O)N[C@@H]1C(=O)N[C@H](Cc2ccccc2)C(=O)N[C@@H](CC(C)C)C(=O)N[C@H](Cc2ccc(F)c(F)c2)C(=O)N(C)[C@H](C)C(=O)N[C@@H](CC(C)C)C(=O)N2CCC[C@H]2C(=O)O[C@@H]1C,-5.51
CC(=O)N[C@@H]1C(=O)N2CCC[C@H]2C(=O)N(C)[C@H](CC(C)C)C(=O)N(C)[C@@H](CC(C)C)C(=O)N[C@@H](CC(C)C)C(=O)N[C@@H](CC(C)C)C(=O)N[C@@H](C)C(=O)N[C@@H](CC(C)C)C(=O)N2CCC[C@@H]2C(=O)O[C@@H]1C,-6.36

A selection of 2 entries from above:

{"smiles": "CC(=O)N1CCC[C@H]1C(=O)N(C)[C@H](CC(C)C)C(=O)N[C@@H]1C(=O)N[C@H](Cc2ccc(F)cc2)C(=O)N[C@@H](Cc2ccc(F)cc2)C(=O)N[C@H](Cc2ccccc2)C(=O)N(C)[C@H](C)C(=O)N[C@@H](CC(C)C)C(=O)N2CCC[C@H]2C(=O)O[C@@H]1C", "PAMPA (log10 cm/s)": "-5.82"}
{"smiles": "CC(=O)N[C@@H]1C(=O)N2CCC[C@H]2C(=O)N(C)[C@H](CC(C)C)C(=O)N(C)[C@@H](CC(C)C)C(=O)N[C@@H](CC(C)C)C(=O)N(C)[C@@H](CC(C)C)C(=O)N(C)[C@H](C)C(=O)N[C@@H](CC(C)C)C(=O)N2CCC[C@@H]2C(=O)O[C@@H]1C", "PAMPA (log10 cm/s)": "-6.00"}